Data published in US20050096347A1, “Beta3-Adrenoreceptor agonists, agonist compositions and methods of using” (Molecular Design International, Inc., priority 1997, published 2005).

The chains behind the UniProt entries cited, without tags or fusion partners.
UniProt P26255, whole entry: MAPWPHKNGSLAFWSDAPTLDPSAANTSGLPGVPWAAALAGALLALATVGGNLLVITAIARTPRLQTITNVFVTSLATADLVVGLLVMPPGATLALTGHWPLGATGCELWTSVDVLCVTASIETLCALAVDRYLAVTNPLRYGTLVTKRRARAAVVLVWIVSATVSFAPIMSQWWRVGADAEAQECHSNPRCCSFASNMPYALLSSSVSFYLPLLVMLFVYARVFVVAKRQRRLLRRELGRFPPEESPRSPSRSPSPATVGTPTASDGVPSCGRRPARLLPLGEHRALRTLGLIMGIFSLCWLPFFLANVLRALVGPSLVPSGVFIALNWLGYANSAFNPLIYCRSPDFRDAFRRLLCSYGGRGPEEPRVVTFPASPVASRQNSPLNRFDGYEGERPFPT
UniProt P13945, whole entry: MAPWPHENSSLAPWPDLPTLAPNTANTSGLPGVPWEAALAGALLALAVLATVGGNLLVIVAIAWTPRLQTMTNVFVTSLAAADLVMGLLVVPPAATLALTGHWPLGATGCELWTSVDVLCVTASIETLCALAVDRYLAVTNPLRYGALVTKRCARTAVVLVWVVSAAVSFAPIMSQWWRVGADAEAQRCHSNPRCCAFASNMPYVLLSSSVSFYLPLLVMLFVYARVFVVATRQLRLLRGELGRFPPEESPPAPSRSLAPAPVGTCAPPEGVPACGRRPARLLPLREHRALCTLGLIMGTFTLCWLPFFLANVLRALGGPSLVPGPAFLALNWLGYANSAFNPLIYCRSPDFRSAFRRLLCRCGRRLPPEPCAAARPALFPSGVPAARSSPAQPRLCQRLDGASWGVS
UniProt P08588, whole entry: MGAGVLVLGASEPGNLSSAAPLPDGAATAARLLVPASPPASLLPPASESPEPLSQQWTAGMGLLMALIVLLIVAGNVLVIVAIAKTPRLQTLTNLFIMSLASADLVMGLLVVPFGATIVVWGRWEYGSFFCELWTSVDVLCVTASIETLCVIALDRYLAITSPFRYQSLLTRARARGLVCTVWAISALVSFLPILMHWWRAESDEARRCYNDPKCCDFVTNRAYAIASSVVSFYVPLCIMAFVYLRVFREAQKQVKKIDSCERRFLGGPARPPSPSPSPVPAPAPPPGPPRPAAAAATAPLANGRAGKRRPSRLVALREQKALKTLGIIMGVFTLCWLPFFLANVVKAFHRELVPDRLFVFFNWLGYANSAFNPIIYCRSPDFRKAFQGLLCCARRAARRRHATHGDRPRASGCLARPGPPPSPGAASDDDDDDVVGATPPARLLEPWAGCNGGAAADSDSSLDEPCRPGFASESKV

Experiments:
rat-β3-AR [1] = biological target: T1, rat-β3-AR (Rattus norvegicus, UniProt P26255); test: Binding in CHO cells expressing rat β3-AR; conditions: mean ± SEM (n in parentheses), tested form: HBr
rat-β3-AR [2] = biological target: T1, rat-β3-AR; test: cAMP accumulation in CHO cells expressing rat β3-AR; assay type: cell-based; conditions: tested form: HBr
Human β2-AR = Human β2-AR (Homo sapiens, UniProt P07550); test: CRE-luciferase reporter gene (CRE-LUC) assay, CHO cells expressing human β2-AR; conditions: tested form: HCl
Human β3-AR [3] = biological target: T2, Human β3-AR (Homo sapiens, UniProt P13945); test: CRE-luciferase reporter gene (CRE-LUC) assay, CHO cells expressing human β3-AR; conditions: tested form: HCl
Human β1-AR [4] = biological target: T3, Human β1-AR (Homo sapiens, UniProt P08588); test: CRE-luciferase reporter gene (CRE-LUC) assay, CHO cells expressing human β1-AR; conditions: tested form: HCl
human β3-Adrenoreceptor = human β3-Adrenoreceptor (Homo sapiens, UniProt P13945); test: Radioligand competition binding, human β3 adrenoreceptor expressed in CHO cells ([125I]ICYP); conditions: N = 3-9 (Table 5)
Human β1-AR [5] = biological target: T3, Human β1-AR; test: cAMP radioimmunoassay (cAMP-RIA), CHO cells expressing human β1-AR; assay type: cell-based; conditions: percentage of maximal response of R-(−)-isoproterenol (100%)
Human β3-AR [6] = biological target: T2, Human β3-AR; test: cAMP radioimmunoassay (cAMP-RIA), CHO cells expressing human β3-AR; assay type: cell-based; conditions: percentage of maximal response of R-(−)-isoproterenol (100%)

pKi (−log Ki) for binding, rat-β3-AR (rat-β3-AR [1]): 5.83 )†
pKact (−log EC50) for cAMP accumulation, rat-β3-AR (rat-β3-AR [2]; CHO cells, mean ± SEM (n in parentheses)): 8.61 )†
Emax, maximal cAMP accumulation (rat-β3-AR [2]; relative to that of (−)-isoproterenol, CHO cells expressing rat-β3-AR): 104%
SMILES: Oc1cc2c(cc1O)C(Cc1ccc(N=C=S)c(I)c1)NCC2 (stereo not drawn)

I.A., β2-AR (Human β2-AR): 21
I.A., β3-AR (Human β3-AR [3]): 62
I.A., β1-AR (Human β1-AR [4]): 22
SMILES: COc1c(I)cc(CC2NCCc3ccccc32)cc1I (stereo not drawn)

SMILES: COc1c(I)cc(CC2NCCc3cc(O)c(O)cc32)cc1I (stereo not drawn)
pKi ± SEM, Human β3-AR (human β3-Adrenoreceptor): 7.67 ± 0.24
I.A. ± SEM, Human β1-AR, cAMP-RIA assay (Human β1-AR [5]): 103 ± 4%
I.A., Human β3-AR, cAMP-RIA assay (Human β3-AR [6]): 120 ± 9%

One block for each molecule: values may come before it.
